In this assay the target is Sucrase-isomaltase, intestinal (Rattus norvegicus, UniProt P23739). The assay is described as follows: Inhibition of rat intestinal sucrase using p-nitrophenyl-alpha-d-glucopyranoside as substrate incubated for 10 mins prior to substrate addition measured after 5 mins by spectrophotometry.

By UniProt entry, the sequences of proteins in these tests, tags left out. Residues count along the entry.
UniProt P23739, 1014-1841 limits assumed: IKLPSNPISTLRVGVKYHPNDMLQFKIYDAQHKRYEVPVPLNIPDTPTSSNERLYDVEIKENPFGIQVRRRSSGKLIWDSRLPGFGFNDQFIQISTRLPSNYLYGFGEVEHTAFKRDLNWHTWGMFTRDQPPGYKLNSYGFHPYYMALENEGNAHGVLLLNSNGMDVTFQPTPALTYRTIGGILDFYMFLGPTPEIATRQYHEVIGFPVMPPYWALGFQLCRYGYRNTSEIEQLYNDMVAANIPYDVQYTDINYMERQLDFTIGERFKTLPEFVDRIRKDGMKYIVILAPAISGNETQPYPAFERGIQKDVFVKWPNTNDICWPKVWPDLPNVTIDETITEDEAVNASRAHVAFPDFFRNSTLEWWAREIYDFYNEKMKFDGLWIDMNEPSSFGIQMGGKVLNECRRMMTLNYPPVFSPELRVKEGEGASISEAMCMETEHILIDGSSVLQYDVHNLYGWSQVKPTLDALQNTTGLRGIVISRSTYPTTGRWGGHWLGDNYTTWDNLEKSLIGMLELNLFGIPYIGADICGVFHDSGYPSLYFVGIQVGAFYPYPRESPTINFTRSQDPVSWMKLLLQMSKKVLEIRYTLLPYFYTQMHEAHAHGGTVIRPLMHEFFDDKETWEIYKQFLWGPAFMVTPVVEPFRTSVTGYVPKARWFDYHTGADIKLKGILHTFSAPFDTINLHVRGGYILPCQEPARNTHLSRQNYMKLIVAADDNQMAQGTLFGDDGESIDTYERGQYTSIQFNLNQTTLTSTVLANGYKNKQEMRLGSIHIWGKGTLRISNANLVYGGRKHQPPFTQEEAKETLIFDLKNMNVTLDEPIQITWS
UniProt P23739, 1-1013 limits assumed: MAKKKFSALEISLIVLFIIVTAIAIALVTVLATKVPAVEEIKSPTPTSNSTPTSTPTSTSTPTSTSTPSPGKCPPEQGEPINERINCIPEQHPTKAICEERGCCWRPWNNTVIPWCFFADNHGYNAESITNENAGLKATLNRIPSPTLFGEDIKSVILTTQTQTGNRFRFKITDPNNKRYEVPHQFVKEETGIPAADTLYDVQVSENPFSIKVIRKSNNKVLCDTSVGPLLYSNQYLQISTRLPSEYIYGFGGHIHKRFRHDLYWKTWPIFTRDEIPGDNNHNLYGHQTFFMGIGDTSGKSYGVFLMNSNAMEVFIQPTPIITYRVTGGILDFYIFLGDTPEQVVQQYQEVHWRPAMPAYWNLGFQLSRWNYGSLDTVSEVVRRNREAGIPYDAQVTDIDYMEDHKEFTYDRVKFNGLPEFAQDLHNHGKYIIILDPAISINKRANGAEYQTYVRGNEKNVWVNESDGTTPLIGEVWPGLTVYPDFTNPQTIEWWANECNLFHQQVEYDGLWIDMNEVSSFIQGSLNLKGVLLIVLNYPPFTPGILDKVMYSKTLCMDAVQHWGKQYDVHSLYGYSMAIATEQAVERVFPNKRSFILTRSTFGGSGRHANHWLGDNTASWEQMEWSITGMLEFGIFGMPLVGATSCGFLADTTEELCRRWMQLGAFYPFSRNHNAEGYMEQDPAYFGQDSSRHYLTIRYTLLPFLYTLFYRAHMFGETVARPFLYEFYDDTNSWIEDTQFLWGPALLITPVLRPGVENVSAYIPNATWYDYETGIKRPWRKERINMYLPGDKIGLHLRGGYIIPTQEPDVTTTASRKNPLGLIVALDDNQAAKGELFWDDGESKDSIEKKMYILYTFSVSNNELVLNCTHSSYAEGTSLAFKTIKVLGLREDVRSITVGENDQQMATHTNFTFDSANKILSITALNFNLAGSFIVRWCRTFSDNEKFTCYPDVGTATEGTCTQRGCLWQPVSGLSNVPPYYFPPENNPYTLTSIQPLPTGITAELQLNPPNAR

Experimental findings from ChEMBL document CHEMBL3112477, “Rat intestinal sucrase inhibition of constituents from the roots of Rosa rugosa Thunb” (Bioorg Med Chem Lett, 2014) are described below.

`C[C@H]1O[C@H](O[C@H]2[C@H](O)[C@@H](O)[C@@H](O[C@H]3[C@H](O)[C@@H](O)C(O)O[C@@H]3CO)O[C@@H]2CO)[C@H](O)[C@@H](O)[C@@H]1N[C@H]1C=C(CO)[C@@H](O)[C@H](O)[C@H]1O` (stereo partly specified) [ACARBOSE] displayed an IC50 below 50 µM.

The IC50 is the point on the concentration scale where inhibition reaches its midpoint.
